Values quoted from earlier work as cited in patent publication US20240315989A1 (priority 2021, published 2024).

Sequences of proteins named here, by UniProt entry; tags and fusion partners are left off.
UniProt Q99720, whole entry: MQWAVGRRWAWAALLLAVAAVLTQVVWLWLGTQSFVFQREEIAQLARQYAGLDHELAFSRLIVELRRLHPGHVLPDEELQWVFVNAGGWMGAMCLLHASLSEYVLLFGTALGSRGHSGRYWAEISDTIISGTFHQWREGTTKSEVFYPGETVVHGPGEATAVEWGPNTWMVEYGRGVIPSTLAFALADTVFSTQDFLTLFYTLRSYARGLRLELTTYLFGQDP

Biological target: σ1 site (Homo sapiens, UniProt Q99720)
Conditions: read-out: Affinity for σ1 Site (Ki or KD values); cited from earlier work

In the case of `Clc1cc(/C=C\CN2CCCCCC2)ccc1C1CCCCC1`, the Ki is listed as under 50 nM.
